The source of these data is US11111250B2, “Polymorphs of Ribociclib mono succinate” (SHILPA MEDICARE LIMITED, priority 2017, dated 2021).

The conditions of data set [1]: hydrate, as obtained by the process.

As to Ribociclib mono succinate, the moisture absorption entry (normal atmospheric conditions) is on record as “no moisture absorption observed”. Besides, the “PXRD of the sample after humidity exposure and drying” value (sample obtained after 3 hours at 90% RH, dried at 60-80° C.) was “resembles with the Crystalline Ribociclib mono succinate Form-SRS-I”. Also, the moisture content result in data set [1] is reported as “less than 5.0%”.
